Reference: PubChem BioAssay AID1362 (SRMLSC, 2008)
Only a part is listed here, and it is no random draw. Activity calls are given as the source filed them. Rule as the data show it: active = inhibition above about 58%; inactive = the rest, inconclusive results apart; tested in S. cerevisiae.

assay: growth inhibition of WT strain, primary screen, mitochondrial fusion inhibitor project, WT and mutant strains, chemical genetic (AID 1362); details: mitochondrial fusion phenotypic screen, at 10 µM, active compounds read high

Compound | inhibition
Cc1nn(-c2ccccc2)c2c1P(=O)(N1CCOCC1)N(C)C(c1ccccc1)=N2 (centres undefined) | inactive: -10.8%
CC1CCC(C(C)C)C(OP(=O)(Nc2ccccn2)c2ccccc2)C1 (centres undefined) | inactive: 34.3%
CN(C)C1(CNC(=O)c2ccc(S(C)(=O)=O)cc2)CCCCC1 | inactive: 9.68%
Cc1nc2ccc3ccccc3c2s1.O=[N+]([O-])c1cc([N+](=O)[O-])c(O)c([N+](=O)[O-])c1 | inactive: 3.07%
CN(C(=O)Cc1ccc(Cl)c(Cl)c1)[C@@H]1CCCC[C@H]1N1CCCC1 | inactive: 1.65%
CC(C)/C=N\N=C(\N)N[N+](=O)[O-] | inactive: 8.94%
O=P1(Nc2ccccn2)COc2ccccc2OC1 | inactive: -11.5%
O=[N+]([O-])c1cc([N+](=O)[O-])c(-n2nnc3ccccc32)c([N+](=O)[O-])c1 | inactive: -15.2%
Clc1n[nH]nc1-c1nn[nH][15n]1 | inactive: -9.53%
CCOC(=O)c1ccc(NP(C)(=O)Oc2ccc(OC)cc2)cc1 (centres undefined) | inactive: -5.33%
CCOP(C)(=S)SCC(=O)NC(C)C(=O)O (centres undefined) | inactive: 0.3%
CP(=O)(Nc1ccccn1)Oc1ccc(Cl)cc1 (centres undefined) | inactive: 6.72%
COP1(=S)c2c(C)nn(CCC#N)c2N=C(c2ccc(F)cc2)N1C (centres undefined) | inactive: -3.14%
Cc1cccc(C)c1OP(C)(=O)Nc1ccc(SC(F)(F)F)cc1 (centres undefined) | inactive: 19.3%
CP(=O)(Oc1ccccc1)OC(c1ccccc1)C(F)(F)F (centres undefined) | inactive: 3.8%
CP(=O)(NC(=O)Nc1ccccc1)Oc1ccccc1 (centres undefined) | inactive: 2.95%
O=C(COc1ccccc1)OC1CN2CCC1CC2 (centres undefined) | inactive: -15.2%
Cc1cc(C)cc(OP(C)(=O)Nc2ccc(SC(F)(F)F)cc2)c1 (centres undefined) | inactive: 0.99%
CP(=S)(Nn1cnnc1)Oc1ccccc1 (centres undefined) | inactive: -4.31%
CP(=O)(Nc1ccccc1Br)Oc1ccccc1 (centres undefined) | inactive: 10.5%
Cc1cc(SC(NC=O)C(Cl)(Cl)Cl)ncn1 (centres undefined) | inactive: -25.1%
O=P(Nc1ccccn1)(c1cccc2ccccc12)c1cccc2ccccc12 | inactive: 16.6%

Compound | inhibition
COc1ccccc1OP(C)(=O)Nc1ccccc1 (centres undefined) | inactive: -2.74%
Cc1cc(SC(NC(=O)c2ccccc2)C(Cl)(Cl)Cl)nc(C(C)C)n1 (centres undefined) | inactive: -6.07%
COc1ccccc1OP(C)(=O)Nc1ccc(C)cc1 (centres undefined) | inactive: 7.8%
Cc1ccc(NP(C)(=O)Oc2ccccc2)c(C)c1 (centres undefined) | inactive: 2.75%
CCOC(=O)c1ccc(NP(C)(=O)Oc2ccccc2)cc1 (centres undefined) | inactive: -7.17%
ClCCSc1nnc(-c2cccnc2)o1 | inactive: 2.04%
Cc1cc(C)cc(OP(C)(N)=O)c1 (centres undefined) | inactive: -3.99%
CC(C)NC(=O)NP(=O)(Oc1ccccc1)Oc1ccccc1 | inactive: -15%
COc1ccccc1OP(C)(=O)Nc1cc(Cl)ccc1C (centres undefined) | inactive: 2.1%
CCN(CC)C(=S)SC(NC=O)C(Cl)(Cl)Cl (centres undefined) | inactive: 23.4%
COc1ccc(OP(C)(=O)Nc2cccc(F)c2)cc1 (centres undefined) | inactive: -0.89%
O=[N+]([O-])c1cc([N+](=O)[O-])c(-c2ccn[nH]2)s1 | inactive: 31.7%
O=[N+]([O-])c1ccc2c(c1)C=Nc1ccccc1O2 | inactive: 54.2%
Cc1ccc2nc3c(c(C)c2c1)CC(C(Cl)Cl)S3 (centres undefined) | inactive: 15.9%
CC(C)(C)c1ccc(OP(C)(=O)Nc2ccc(SC(F)(F)F)cc2)cc1 (centres undefined) | active: 74.9%
Cc1cccc(C)c1OP(C)(N)=O (centres undefined) | inactive: -16.7%
COc1ccc(N/C(=N/P(=O)(N2CCOCC2)N2CCOCC2)N2CCOCC2)cc1 | inactive: -2.59%
O=C(OC1CN2CCC1CC2)C12CC3CC(CC(C3)C1)C2 (centres undefined) | inactive: -4.16%
Cc1cc(=O)[nH]c(N[N+](=O)[O-])n1 | inactive: -6.69%
CCN(CC)CCCOC(=O)C(O)(c1ccccc1)c1ccccc1 | inactive: -16.2%
Cc1c2c(nc3ccccc13)SC(C(Cl)Cl)C2 (centres undefined) | inactive: 11.8%
COc1ccc2nc(NP(=O)(c3ccccc3)c3ccccc3)sc2c1 | inactive: -19%
